Target: Mu-type opioid receptor (Homo sapiens, UniProt P35372)
Assay: ASSAY_NAME: Binding Assay DESCRIPTION: The affinity to the human μ-opiate receptor was determined in a homogeneous preparation in microtiter plates. For this, dilution series of the respective compound to be tested were incubated for 90 minutes at room temperature with a receptor membrane preparation (15-40 mg of protein per 250 μl of incubation batch) of CHO-K 1 cells, which express the hum

Chains of the proteins cited; added tags and fusions are not shown.
UniProt P35372, whole entry: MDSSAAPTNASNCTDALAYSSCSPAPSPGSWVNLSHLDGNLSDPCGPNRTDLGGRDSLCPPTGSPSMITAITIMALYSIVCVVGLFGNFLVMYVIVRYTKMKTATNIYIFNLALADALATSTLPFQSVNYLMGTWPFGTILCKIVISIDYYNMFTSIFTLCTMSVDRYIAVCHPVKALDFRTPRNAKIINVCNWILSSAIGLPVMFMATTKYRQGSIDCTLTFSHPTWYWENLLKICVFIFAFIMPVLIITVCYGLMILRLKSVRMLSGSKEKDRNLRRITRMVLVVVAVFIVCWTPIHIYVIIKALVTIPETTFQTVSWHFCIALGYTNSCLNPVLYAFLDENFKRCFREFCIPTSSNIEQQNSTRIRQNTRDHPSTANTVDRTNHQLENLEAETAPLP

Q: Which Ki does the source give for COc1ccc(C2(N(C)C)CCC(c3ccccc3)(N(C)C)CC2)cc1 (stereo unspecified) here?
A: The Ki was 670 nM.

— BindingDB's records for US9403767
